Experimental data as given in US10640492B2, “Tubulin inhibitor” (SHENZHEN NEPTUNUS PHARMACEUTICAL RESEARCH INSTITUTE CO., …, priority 2016, dated 2020).

Tested on: tubulin in HuVEC cells
Assay: Action on microtubule function, α-tubulin staining in HuVEC
Type: cell-based, human
Details: 2 μM, 30 minutes, vs DMSO control
Source text: Human umbilical vein endothelial cells (HuVEC from Cambrex) were used in this study.

**Q.** What does the source list for `COc1cc2c(c(OC)c1OC)-c1ccc(OC)c(=O)cc1[C@@H](NC(C)=O)CC2` [colchicine, reference compound]?
**A.** cell membrane blebbing: induced; microtubule depolymerization: induced
